Tested on: cardiac tissue proteins
Assay: Surfactant-aided protein extraction from insoluble cardiac tissue pellet, SDS-PAGE and protein assay
Conditions: for protein solubilization ability: 0.5% surfactant in 25 mM NH4HCO3, SDS-PAGE and Bradford protein assay (FIG. 16)
Experimental: Data presented were based on three independent experiments (n=3). Error bars represent standard error of the mean.
Protein extraction from cardiac tissue. The frozen tissue samples (˜500 mg) were cut into small pieces and washed with PBS buffer containing protease inhibitors and reducing agent (5 mM DTT, 1 mM PMSF, 1× protease inhibitor cocktail). […] The homogenate was centrifuged at 211,750×g using Beckman Ultracentrifuge and a Ti-80 rotor for 1 h. The supernatant after the first HEPES extraction was removed and saved as “E1” extraction. The HEPES extraction was repeated on the resulting pellet and saved as “E2”. After the second HEPES extraction, the tissue pellet was suspended in 25 mM NH4HCO3 and evenly divided into smaller aliquots. In one aliquot, 25 mM NH4HCO3 buffer with no surfactant (NS) was used in a 1:1 ratio (homogenate:buffer) and labeled as “E3”. In the other aliquots, surfactants (1% in 25 mM NH4HCO3) were individually added to the other aliquots in a 1:1 ratio (homogenate:surfactant) and labeled as “E3” following incubation and centrifugation.

4-hexylphenylazosulfonate was tested, and the protein solubilization ability was “drastically better protein solubilization ability”, the protein solubilization ability (listed as Azo6) was “drastically better protein solubilization ability” and the “effectiveness in solubilizing proteins” value (0.5% surfactant in extraction buffer, E3 after HEPES extractions, SDS-gel and Pierce 660 nm protein assay (FIG. 2)) was “highly effective”.
